Assay results taken from patent US9096593B2, “Compounds and methods for kinase modulation, and indications therefor” (Plexxikon Inc., priority 2009, dated 2015).

By UniProt entry, the sequences of proteins in these tests, tags left out. Residues count along the entry.
UniProt P07333, 20-972 limits assumed: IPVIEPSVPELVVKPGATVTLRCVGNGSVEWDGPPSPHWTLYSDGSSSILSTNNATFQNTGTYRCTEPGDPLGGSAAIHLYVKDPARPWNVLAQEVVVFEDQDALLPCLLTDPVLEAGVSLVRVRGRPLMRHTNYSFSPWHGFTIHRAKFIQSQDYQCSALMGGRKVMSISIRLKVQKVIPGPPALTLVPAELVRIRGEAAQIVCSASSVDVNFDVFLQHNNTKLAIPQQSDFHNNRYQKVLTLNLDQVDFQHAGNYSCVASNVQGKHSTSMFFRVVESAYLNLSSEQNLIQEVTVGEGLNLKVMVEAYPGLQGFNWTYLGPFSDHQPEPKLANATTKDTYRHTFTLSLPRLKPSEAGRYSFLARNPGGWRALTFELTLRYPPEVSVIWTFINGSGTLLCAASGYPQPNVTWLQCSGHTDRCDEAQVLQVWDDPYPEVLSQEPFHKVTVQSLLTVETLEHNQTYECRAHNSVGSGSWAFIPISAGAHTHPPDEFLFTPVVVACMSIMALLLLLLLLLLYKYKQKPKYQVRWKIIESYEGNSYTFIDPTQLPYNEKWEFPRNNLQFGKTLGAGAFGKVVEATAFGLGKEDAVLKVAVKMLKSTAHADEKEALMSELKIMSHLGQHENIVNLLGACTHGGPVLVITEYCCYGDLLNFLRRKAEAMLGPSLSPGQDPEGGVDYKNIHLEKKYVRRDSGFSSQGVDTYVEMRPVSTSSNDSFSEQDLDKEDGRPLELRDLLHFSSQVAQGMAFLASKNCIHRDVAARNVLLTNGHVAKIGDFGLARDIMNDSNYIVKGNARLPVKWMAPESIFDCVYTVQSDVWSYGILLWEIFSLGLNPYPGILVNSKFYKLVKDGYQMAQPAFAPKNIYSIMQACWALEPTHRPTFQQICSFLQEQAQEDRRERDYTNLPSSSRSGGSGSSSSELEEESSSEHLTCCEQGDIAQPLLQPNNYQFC
UniProt P10721, 26-976 limits assumed: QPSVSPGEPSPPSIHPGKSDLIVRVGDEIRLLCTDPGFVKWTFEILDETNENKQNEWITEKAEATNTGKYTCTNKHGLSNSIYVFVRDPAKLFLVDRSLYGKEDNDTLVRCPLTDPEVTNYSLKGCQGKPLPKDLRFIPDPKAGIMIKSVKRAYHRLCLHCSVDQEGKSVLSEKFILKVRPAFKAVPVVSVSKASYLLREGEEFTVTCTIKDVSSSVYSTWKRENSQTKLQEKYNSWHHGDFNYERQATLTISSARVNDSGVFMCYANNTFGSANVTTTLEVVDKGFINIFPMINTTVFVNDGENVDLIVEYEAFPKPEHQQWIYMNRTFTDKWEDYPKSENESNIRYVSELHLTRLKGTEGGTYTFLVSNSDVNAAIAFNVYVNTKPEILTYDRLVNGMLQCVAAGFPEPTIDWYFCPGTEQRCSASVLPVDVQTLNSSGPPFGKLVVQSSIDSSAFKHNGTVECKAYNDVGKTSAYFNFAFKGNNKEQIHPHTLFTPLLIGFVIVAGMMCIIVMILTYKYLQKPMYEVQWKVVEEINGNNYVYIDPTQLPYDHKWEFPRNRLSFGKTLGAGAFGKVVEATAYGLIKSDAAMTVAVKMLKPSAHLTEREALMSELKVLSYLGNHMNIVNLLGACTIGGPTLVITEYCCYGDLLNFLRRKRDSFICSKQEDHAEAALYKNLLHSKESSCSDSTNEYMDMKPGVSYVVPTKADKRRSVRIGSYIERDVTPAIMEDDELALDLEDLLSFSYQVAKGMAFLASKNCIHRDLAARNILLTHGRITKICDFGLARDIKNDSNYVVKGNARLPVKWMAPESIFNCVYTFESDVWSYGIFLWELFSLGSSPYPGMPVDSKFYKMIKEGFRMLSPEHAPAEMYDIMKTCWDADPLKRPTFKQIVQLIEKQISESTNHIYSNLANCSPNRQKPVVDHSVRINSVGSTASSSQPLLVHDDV
UniProt P36888, 27-993 limits assumed: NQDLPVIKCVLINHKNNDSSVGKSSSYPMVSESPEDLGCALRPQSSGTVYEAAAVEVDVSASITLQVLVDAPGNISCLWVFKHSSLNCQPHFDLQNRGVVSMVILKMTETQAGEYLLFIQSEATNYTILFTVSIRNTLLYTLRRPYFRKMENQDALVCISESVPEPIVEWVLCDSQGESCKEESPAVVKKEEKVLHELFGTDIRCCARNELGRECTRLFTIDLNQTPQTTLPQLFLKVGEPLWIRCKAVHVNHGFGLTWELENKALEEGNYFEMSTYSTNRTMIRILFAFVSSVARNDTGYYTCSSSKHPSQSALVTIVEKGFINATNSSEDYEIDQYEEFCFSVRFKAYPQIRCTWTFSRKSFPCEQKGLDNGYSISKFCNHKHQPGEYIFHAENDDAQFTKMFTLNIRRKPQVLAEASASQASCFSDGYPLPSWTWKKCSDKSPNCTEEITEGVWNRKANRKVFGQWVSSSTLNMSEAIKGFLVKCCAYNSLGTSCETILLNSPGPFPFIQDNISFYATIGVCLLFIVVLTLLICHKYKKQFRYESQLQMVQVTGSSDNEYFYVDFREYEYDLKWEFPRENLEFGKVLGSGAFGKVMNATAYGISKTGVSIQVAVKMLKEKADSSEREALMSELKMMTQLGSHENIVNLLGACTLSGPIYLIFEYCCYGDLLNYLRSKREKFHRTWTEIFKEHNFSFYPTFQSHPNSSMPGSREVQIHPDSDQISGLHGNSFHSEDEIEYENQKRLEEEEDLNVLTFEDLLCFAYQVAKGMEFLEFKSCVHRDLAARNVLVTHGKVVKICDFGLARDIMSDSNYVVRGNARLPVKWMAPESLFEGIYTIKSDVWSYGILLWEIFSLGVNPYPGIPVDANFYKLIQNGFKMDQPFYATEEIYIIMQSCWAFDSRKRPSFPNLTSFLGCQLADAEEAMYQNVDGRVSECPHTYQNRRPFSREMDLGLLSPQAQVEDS
UniProt P33261, whole entry: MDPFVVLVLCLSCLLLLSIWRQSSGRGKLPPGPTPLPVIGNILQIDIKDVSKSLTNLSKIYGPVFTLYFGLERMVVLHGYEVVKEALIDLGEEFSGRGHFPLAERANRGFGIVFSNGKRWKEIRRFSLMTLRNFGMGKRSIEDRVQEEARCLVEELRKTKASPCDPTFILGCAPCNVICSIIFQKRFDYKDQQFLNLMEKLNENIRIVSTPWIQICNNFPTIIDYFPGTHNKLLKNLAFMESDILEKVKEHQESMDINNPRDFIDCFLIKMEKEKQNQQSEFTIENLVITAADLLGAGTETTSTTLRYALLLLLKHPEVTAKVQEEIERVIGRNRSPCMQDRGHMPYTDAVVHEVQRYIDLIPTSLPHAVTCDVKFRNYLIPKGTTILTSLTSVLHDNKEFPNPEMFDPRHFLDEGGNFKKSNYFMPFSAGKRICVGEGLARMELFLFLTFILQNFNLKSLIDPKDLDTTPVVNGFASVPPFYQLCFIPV
UniProt P11712, whole entry: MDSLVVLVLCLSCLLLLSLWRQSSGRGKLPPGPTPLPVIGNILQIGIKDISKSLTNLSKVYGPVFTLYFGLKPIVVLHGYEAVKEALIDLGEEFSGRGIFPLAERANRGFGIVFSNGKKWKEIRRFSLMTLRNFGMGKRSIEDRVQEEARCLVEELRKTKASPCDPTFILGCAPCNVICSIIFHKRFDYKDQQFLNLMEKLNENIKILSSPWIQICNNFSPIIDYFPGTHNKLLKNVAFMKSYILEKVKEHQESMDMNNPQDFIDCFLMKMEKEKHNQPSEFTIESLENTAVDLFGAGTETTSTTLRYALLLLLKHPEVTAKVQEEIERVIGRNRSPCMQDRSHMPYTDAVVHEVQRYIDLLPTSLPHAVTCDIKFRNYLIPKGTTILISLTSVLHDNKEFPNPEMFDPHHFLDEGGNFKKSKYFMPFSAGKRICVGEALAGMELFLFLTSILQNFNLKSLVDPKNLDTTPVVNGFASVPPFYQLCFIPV
UniProt P10635, whole entry: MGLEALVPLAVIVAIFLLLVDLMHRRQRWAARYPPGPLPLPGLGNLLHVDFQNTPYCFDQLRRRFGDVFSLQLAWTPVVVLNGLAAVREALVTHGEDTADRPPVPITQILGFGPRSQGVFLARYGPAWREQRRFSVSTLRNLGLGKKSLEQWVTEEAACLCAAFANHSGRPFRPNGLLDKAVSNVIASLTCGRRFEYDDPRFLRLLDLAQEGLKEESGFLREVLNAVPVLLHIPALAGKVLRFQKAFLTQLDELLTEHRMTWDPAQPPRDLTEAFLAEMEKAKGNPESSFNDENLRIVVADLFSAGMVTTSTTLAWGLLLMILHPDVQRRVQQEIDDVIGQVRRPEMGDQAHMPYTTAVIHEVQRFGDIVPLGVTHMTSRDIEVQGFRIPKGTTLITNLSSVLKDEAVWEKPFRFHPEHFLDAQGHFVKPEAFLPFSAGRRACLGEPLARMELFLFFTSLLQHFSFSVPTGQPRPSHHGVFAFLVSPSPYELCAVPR
UniProt P08684, whole entry: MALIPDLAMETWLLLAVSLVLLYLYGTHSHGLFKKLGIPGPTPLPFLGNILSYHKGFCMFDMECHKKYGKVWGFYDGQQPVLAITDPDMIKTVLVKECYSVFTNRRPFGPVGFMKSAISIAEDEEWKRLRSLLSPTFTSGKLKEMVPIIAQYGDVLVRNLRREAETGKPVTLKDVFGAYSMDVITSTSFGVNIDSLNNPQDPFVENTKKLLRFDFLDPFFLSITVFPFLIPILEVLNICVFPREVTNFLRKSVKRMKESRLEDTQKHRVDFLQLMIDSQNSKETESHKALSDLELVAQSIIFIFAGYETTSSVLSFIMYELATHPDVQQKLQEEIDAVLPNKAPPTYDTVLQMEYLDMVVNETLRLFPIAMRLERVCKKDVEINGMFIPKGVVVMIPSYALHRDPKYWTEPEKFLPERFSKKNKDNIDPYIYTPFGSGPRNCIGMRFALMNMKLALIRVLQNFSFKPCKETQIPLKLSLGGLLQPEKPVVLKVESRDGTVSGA
UniProt P05177, whole entry: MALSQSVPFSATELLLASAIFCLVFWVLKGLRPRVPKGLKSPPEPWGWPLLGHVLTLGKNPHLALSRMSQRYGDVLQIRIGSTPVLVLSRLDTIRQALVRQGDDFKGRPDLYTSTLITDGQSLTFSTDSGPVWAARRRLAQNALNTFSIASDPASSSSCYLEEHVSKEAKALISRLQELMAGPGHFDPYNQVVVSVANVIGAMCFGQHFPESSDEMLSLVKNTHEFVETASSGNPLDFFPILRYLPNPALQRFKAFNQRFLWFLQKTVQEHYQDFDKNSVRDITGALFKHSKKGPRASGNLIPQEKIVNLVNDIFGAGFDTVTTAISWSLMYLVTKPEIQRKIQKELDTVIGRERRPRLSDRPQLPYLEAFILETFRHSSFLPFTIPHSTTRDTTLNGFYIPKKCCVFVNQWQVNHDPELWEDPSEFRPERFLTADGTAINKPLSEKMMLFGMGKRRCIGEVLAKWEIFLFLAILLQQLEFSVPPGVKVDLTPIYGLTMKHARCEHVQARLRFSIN

How the values were obtained:
Fms kinase = Fms kinase (Homo sapiens (Human), UniProt P07333); test: Fms kinase biochemical activity assay (AlphaScreen, biotin-(E4Y)10 phosphorylation)
c-Kit kinase = c-Kit kinase (Homo sapiens (Human), UniProt P10721); test: c-Kit kinase biochemical activity assay (AlphaScreen, biotin-(E4Y)10 phosphorylation); conditions: read-out: Biochemical activity (IC50 μM) Kit
Flt-3 kinase = Flt-3 kinase (Homo sapiens (Human), UniProt P36888); test: Flt-3 kinase biochemical activity assay (AlphaScreen, biotin-(E4Y)10 phosphorylation); conditions: read-out: Biochemical (IC50 μM) Flt-3; 100 μM ATP
BCR-FMS/BaF3 cells = BCR-FMS/BaF3 cells (Homo sapiens, UniProt P07333); test: BCR-FMS/BaF3 cell proliferation assay (ATPlite); assay type: cell-based; conditions: for IC50: BCR-FMS/BaF3 cells
BCR-KIT/BaF3 cells = BCR-KIT/BaF3 cells (Homo sapiens, UniProt P10721); test: BCR-KIT/BaF3 cell proliferation assay (ATPlite); assay type: cell-based; conditions: read-out: BCR/BaF3 (IC50 μM) Kit
MV-4-11 cells = test: MV-4-11 cell proliferation assay (ATPlite); conditions: read-out: Cell based (IC50 μM) MV-4-11 (Flt-3), 3 days
[1] = tested on: Osteoclast precursor cells; test: Osteoclast differentiation assay (acid phosphatase readout); conditions: read-out: IC50 in the osteoclast differentiation assay; RANKL and M-CSF
[2] = Turbidity assay of relative solubility in aqueous buffers
CYP2C19 = CYP2C19 (Homo sapiens (Human), UniProt P33261); test: CYP enzyme inhibition, fluorescent substrate; assay type: in vitro ADME; conditions: read-out: Cyp IC50 (μM) 2C19
CYP2C9 = CYP2C9 (Homo sapiens (Human), UniProt P11712); test: CYP enzyme inhibition, fluorescent substrate; assay type: in vitro ADME; conditions: read-out: Cyp IC50 (μM) 2C9
CYP2D6 = CYP2D6 (Homo sapiens (Human), UniProt P10635); test: CYP enzyme inhibition, fluorescent substrate; assay type: in vitro ADME; conditions: read-out: Cyp IC50 (μM) 2D6
CYP3A4(BQ) = CYP3A4(BQ) (Homo sapiens (Human), UniProt P08684); test: CYP enzyme inhibition, fluorescent substrate; assay type: in vitro ADME; conditions: read-out: Cyp IC50 (μM) 3A4(BQ)
CYP1A2 = CYP1A2 (Homo sapiens (Human), UniProt P05177)
CYP3A4(BFC) = CYP3A4(BFC) (Homo sapiens (Human), UniProt P08684); test: CYP enzyme inhibition, fluorescent substrate; conditions: read-out: Cyp IC50 (μM) 3A4(BFC)

COc1ncc(CNc2ccc(Cc3c[nH]c4ncc(C)cc34)c(F)n2)cc1F
Biochemical activity selectivity (Kit IC50/Fms IC50) (Fms kinase; Kit IC50/Fms IC50, biochemical): > 20
IC50 (Fms kinase; read-out: Biochemical (IC50 μM) Fms, 100 μM ATP): < 0.1 µM
IC50 (Fms kinase; read-out: Biochemical activity (IC50 μM) Fms): < 0.1 µM
IC50 (c-Kit kinase): > 0.1 µM
IC50 (Flt-3 kinase): < 0.1 µM
BCR/BaF3 selectivity (Kit IC50/Fms IC50) (BCR-FMS/BaF3 cells; Kit IC50/Fms IC50, BCR-KIT/BaF3 vs BCR-FMS/BaF3 cells): > 20
IC50 (BCR-FMS/BaF3 cells; read-out: BCR/BaF3 (IC50 μM) Fms): < 0.1 µM
IC50 (BCR-FMS/BaF3 cells; read-out: Cell based (IC50 μM) BCR/BaF3 (Fms), 3 days): < 0.1 µM
IC50 (BCR-KIT/BaF3 cells): > 0.1 µM
IC50 (MV-4-11 cells): > 0.1 µM
IC50 [1]: < 100 nM
turbidity threshold (L, M, H) 1.4 ([2]; pH 1.4 as headed (method: SGF pH 1.5)): M (moderate solubility if the threshold concentration is 31.3 μM to 250 μM)
turbidity threshold (L, M, H) 4.5 ([2]; pH 4.5 (SIF)): L (low solubility if the threshold concentration is <31.3 μM)
turbidity threshold (L, M, H) 6.8 ([2]; pH 6.8 (SIF)): L (low solubility if the threshold concentration is <31.3 μM)
turbidity threshold (L, M, H) 7.4 ([2]; pH 7.4 (HEPES)): L (low solubility if the threshold concentration is <31.3 μM)
IC50 (CYP2C19): > 10 µM
IC50 (CYP2C9): > 10 µM
IC50 (CYP2D6): > 10 µM
IC50 (CYP3A4(BQ)): > 10 µM
IC50 (CYP1A2): > 10000 nM
IC50 (CYP3A4(BFC)): > 10 µM

Read-outs that look alike come from different tables or passages of the source.
